According to patent US7700775B2, “Compounds and compositions for delivering active agents” (Emisphere Technologies, Inc., priority 2001, dated 2010):

Experiment: Insulin - Oral Delivery (serum human insulin by ELISA after oral dosing of delivery agent compound + human zinc insulin)
Conditions: human insulin alone (no delivery agent), previous experiments
Protocol: Oral dosing (PO) compositions of delivery agent compound and human zinc insulin (minimum 26 IU/mg available from Calbiochem—Novabiochem Corp, La Jolla, Calif.) were prepared in deionized water. […] The solution was vortexed, then heated (about 37° C.) and sonicated. The pH was adjusted to about 7 to 8.5 with NaOH or HCl. […] About 1.25 mg insulin from an insulin stock solution (15 mg/ml made from 0.5409 g insulin and 18 ml deionized water, adjusting with HCl and NaOH to pH 8.15 and to obtain a clear solution using 40 ml concentrated HCl, 25 ml 10N NaOH and 50 ml 1N NaOH) was added to the solution and mixed by inverting. […] The final delivery agent compound dose, insulin dose and dose volume amounts are listed below in Table 1.
The typical dosing and sampling protocols were as follows. […] A dosing group of five animals was administered one of the dosing solutions. […] The dosing solution was administered by pressing the syringe plunger.
Serum insulin levels were determined with an Insulin ELISA Test Kit (Kit # DSL-10-1600 from Diagnostic Systems Laboratories, Inc., Webster, Tex.), modifying the standard protocol in order to optimize the sensitivity and linear range of the standard curve for the volumes and concentrations of the samples used in the present protocol. […] The five values for each time point were averaged and the results plotted as serum insulin concentration versus time.

human insulin
serum human insulin following oral dosing with human insulin alone: no measurable levels
